Experiments:
[1] = biological target: extracellular domain (ECD) of murine IGSF11, biotinylated (mouse) (UniProt P0C673); experiment: ELISA, scFv; RFU grade (*** >1.0, ** 0.5-1.0, * 0.1-0.5)
[2] = biological target: extracellular domain (ECD) of human IGSF11 (VSIG3), biotinylated (human) (UniProt Q5DX21); experiment: as above

Sequences of proteins named here, by UniProt entry; tags and fusion partners are left off. Residues count along the entry.
UniProt P0C673, 23-240 limits assumed: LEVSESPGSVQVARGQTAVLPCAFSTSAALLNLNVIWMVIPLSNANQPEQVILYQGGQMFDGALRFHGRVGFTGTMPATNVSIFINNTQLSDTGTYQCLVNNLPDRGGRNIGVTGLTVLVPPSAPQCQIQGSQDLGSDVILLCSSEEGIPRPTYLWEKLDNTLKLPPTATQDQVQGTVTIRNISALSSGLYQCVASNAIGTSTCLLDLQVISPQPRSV
UniProt Q5DX21, 23-241: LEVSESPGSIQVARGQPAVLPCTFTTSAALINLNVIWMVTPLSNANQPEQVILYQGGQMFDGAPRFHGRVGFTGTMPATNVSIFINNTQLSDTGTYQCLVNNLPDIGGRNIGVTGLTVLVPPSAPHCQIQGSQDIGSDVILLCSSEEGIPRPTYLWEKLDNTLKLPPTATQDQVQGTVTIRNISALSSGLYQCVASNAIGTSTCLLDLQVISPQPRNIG

relative fluorescent units (RFU), ELISA [1]: 0.5 to 1 rfu
relative fluorescent units (RFU), ELISA [2]: 0.5 to 1 rfu
Substance: A-018 (scFv format)

Reference: patent US20210061908A1
